pIC50: −log10 of the molar value. Read-outs that look alike come from different tables or passages of the source.
Columns and labels:
[1] = target: FL-SMARCA2 (full-length human SMARCA2 isoform 1) (Homo sapiens, UniProt P51531); assay: SMARCA2 ATPase activity assay (ADP-Glo, chicken mononucleosome substrate)
Description: (§1) General Materials. Adenosine 5′-triphosphate disodium salt hydrate (ATP), Bicine, bovine skin gelatin (BSG), dimethylsulfoxide (DMSO), doxorubicin, glycerol, HEPES, NP-40, phenylmethanesulfonyl fluoride (PMSF), Tris-HCl, Tris(2-carboxyethyl)phosphine hydrochloride solution (TCEP) and Tween 20 were commercially available.
(§2) Substrates. Chicken erythrocyte mononucleosomes were prepared from fresh chicken blood collected into anticoagulant and filtered through cheesecloth. The filtered chicken blood was diluted in buffer A (10 mM Tris-HCl, pH 7.4, 10 mM NaCl, 3 mM MgCl2) and centrifuged at 500 g for 15 minutes to collect the erythrocytes. Erythrocyte nuclei were harvested by resuspending the pellets in buffer A containing 0.3% NP-40 detergent. The mixture was stirred with a magnetic bar for 10 mins and centrifuged at 4000 g for 10 minutes. Resuspension, stirring and centrifugation was repeated twice more before the final nuclei pellet was resuspended in buffer A+0.3% NP-40 and stored at −80° C. until purification. For nucleosome purification, nuclei aliquots were rapidly thawed and washed five times with buffer B (10 mM Tris-HCl, pH 7.4, 1 mM CaCl2), 1 mM PMSF) and collected by centrifugation at 2800 g for 10 minutes. Pellets were resuspended in buffer B and treated with 100 U/mL micrococcal nuclease for 40 minutes at 37° C. The reaction was terminated by the addition of 2 mM EDTA and was centrifuged at 2800 g for 10 minutes. The nuclei were then lysed by resuspending the pellet in 1 mM EDTA and 1 mM PMSF and passing the mixture through a 22G needle 4 to 5 times. The solution was then centrifuged at 15,000 g for 20 minutes and the supernatant was collected. The remaining pellet was lysed through the syringe twice more and the supernatants were pooled after centrifugation. The pooled supernatants were further purified by size exclusion chromatography (GE Sephacryl S300 HR 50/100) in buffer C (10 mM HEPES, pH 7.5, 10 mM KCl, 1 mM EDTA, 1 mM PMSF, 10% glycerol). Fractions were analyzed by agarose gel electrophoresis and SDS-PAGE and fractions containing mononucleosomes were pooled and stored at −80° C.
Molecular Biology: Full-length human SMARCA2 isoform 1 (P51531) transcript clone was amplified from a cDNA library incorporating an N-terminal HIS tag (MGSHHHHHHHHSG) fused directly to Ser2 of SMARCA2 and a C-FLAG tag (YKDDDDK) fused directly to Glu1590 of SMARCA2. The amplified gene was subcloned into pFastBacI (Life Technologies).
Protein Expression: Recombinant baculovirus were generated and protein over-expression was accomplished by infecting exponentially growing Sf21 insect cell culture at 1.24×10^6 cell/ml with an MOI of 0.1. Infections were carried out for 76 hours, harvested by centrifugation, and stored at −80° C. for purification.
Expressed full-length SMARCA2 was purified from cell paste by FLAG affinity chromatography followed by anion exchange chromatography. The protein was dialyzed into a storage buffer containing 25 mM HEPES, 300 mM KCl, 10% Glycerol, pH 7.9, 1 mM TCEP and 0.01% Tween-20. The purity of the protein was measured as 74% using micro-capillary based gel electrophoresis.
The SMARCA2 or SMARCA4 ATPase assays were identical. The SMARCA2 or SMARCA4 ATPase assays were performed in a buffer consisting of 20 mM Bicine (pH 7.5), 10 mM KCl, 1 mM MgCl2, 1 mM TCEP, 0.005% BSG, and 0.002% Tween 20, prepared on the day of use. […]

Chains of the proteins cited; added tags and fusions are not shown. A line that says so, or that is headed by a name, gives the form on record, which may keep a tag or linker. Residues count along the entry.
UniProt P51531, 2-1590 with tags or gaps: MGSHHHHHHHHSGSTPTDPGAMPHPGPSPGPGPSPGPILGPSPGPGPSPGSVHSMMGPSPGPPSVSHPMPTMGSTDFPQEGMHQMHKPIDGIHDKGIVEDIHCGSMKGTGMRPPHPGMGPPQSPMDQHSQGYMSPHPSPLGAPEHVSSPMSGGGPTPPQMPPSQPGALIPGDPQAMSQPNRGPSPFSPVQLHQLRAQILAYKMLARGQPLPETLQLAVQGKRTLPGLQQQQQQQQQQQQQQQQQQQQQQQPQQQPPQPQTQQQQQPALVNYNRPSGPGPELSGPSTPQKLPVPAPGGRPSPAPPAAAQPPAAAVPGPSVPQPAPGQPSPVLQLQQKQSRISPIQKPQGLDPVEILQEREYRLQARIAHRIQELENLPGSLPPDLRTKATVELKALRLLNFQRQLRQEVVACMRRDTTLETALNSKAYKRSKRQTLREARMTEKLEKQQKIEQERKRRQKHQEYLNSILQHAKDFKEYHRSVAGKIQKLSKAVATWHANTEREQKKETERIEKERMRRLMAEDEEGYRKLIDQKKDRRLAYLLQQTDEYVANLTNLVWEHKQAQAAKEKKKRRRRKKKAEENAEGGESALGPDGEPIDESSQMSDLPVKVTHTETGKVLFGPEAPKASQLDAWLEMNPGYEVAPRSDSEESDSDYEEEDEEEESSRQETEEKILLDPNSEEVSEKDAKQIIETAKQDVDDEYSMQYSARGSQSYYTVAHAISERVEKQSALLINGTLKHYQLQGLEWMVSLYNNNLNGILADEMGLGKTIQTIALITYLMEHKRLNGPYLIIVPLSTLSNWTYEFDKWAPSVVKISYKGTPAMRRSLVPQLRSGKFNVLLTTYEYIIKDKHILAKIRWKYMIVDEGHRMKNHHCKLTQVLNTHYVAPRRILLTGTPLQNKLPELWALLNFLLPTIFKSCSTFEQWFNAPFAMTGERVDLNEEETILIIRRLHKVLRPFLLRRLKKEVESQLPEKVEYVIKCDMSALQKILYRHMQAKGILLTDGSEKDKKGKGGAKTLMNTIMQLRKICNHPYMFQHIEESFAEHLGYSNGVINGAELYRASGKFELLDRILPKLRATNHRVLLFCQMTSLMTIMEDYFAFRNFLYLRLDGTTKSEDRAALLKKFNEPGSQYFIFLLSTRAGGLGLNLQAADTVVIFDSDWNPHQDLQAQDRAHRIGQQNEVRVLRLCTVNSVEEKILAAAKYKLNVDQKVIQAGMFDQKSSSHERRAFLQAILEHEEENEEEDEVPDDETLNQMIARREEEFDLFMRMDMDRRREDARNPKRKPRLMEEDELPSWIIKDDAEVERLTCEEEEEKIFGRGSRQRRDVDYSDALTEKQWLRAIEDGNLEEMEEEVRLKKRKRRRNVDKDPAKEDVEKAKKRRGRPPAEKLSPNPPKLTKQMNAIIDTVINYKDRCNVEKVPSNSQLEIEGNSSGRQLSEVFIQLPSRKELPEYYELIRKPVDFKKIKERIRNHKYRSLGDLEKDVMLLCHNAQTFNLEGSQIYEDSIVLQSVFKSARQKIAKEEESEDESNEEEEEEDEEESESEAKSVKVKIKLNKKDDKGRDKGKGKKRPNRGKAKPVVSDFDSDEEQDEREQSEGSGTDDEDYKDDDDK
UniProt P51532, whole entry: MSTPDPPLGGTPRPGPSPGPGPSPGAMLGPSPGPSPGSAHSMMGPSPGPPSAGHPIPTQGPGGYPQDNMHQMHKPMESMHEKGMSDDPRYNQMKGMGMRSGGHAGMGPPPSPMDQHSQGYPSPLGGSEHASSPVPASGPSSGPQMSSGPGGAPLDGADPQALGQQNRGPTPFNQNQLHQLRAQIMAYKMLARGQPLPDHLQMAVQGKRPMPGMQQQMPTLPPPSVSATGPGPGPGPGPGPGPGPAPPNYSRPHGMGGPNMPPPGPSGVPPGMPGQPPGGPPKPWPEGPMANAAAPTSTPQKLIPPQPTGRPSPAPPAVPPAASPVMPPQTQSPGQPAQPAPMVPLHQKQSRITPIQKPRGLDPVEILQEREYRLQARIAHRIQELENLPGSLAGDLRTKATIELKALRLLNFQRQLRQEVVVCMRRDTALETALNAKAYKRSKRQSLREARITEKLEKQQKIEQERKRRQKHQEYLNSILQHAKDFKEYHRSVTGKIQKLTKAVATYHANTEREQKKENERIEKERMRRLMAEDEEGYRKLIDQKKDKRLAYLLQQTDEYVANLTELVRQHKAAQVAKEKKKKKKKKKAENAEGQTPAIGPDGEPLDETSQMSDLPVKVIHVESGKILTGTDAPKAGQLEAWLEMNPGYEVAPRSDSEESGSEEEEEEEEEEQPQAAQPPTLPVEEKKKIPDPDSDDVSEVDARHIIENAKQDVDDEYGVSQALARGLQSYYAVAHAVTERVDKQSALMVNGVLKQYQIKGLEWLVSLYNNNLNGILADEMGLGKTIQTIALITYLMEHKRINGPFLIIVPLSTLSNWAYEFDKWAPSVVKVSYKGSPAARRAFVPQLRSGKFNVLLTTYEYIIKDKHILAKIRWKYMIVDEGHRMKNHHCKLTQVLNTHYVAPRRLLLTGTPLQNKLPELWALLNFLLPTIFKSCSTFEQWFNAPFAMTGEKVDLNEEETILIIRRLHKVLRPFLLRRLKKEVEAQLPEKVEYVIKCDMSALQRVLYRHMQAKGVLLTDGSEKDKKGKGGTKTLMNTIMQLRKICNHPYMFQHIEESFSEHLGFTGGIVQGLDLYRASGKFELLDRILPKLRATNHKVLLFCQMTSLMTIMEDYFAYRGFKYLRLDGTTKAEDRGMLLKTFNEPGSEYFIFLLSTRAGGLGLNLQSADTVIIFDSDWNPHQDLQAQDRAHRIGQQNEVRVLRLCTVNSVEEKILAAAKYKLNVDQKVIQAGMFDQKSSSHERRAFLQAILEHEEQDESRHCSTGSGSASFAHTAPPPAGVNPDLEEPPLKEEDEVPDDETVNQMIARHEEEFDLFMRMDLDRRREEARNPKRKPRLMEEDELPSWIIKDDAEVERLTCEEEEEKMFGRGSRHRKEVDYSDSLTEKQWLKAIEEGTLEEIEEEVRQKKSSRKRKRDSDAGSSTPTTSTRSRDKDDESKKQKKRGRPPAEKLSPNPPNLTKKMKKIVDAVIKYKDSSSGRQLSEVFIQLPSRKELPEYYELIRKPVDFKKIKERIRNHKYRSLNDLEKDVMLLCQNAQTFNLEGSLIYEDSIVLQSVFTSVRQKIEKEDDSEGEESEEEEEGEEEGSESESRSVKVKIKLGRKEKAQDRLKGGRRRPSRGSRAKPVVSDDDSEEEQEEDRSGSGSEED

FL-SMARCA4 = FL-SMARCA4 (Homo sapiens, UniProt P51532); assay: SMARCA4 ATPase activity assay (ADP-Glo, chicken mononucleosome substrate)
Description: as §1, §2
The SMARCA2 or SMARCA4 ATPase assays were identical. The SMARCA2 or SMARCA4 ATPase assays were performed in a buffer consisting of 20 mM Bicine (pH 7.5), 10 mM KCl, 1 mM MgCl2, 1 mM TCEP, 0.005% BSG, and 0.002% Tween 20, prepared on the day of use. Compounds in 100% DMSO were 3-fold serially diluted to produce a 10 point curve for IC50 determination and 0.2 uL were transferred into polypropylene 384-well V-bottom plates (Greiner) using an Echo liquid handler (Labcyte). DMSO (0.2 uL) was added to Columns 11, 12, 23, 24, rows A-H for the maximum signal control and 0.2 uL doxorubicin, a known DNA intercalator, was added to columns 11, 12, 23, 24, rows I-P for the minimum signal control. The SMARCA2 or SMARCA4 enzyme (10 uL) was added to the compounds and allowed to incubate with the compounds for 30 min at room temperature. The SMARCA2 or SMARCA4 ATPase assay was initiated by the addition of 10 uL chicken mononucleosome and ATP mixture (final volume=20 uL). […] The ADP product generated from the SMARCA2 or SMARCA4 ATPase reaction was determined via luminescence intensity.
Where signal is luminescence intensity or Cy3/Cy5 ratio in the assay well, and min and max are the respective minimum and maximum signal controls. […]

H358 cells = assay: High-throughput proliferation (HTP) assay for H358 cells (CellTiter-Glo, 7 days); conditions: read-out: H358 SMARCA2 IC50
Description: Thawing vials: H358 cells (ATCC #CRL-5807™) were thawed from a cryovial containing approximately 1.6×10^6 cells frozen in 70% RPMI 1640 medium, 20% HI-FBS and 10% DMSO. Cells were thawed by submerging the bottom half of the vial in a 37° C. water bath and gently flicked until almost thawed. The cells were removed and transferred into a 15 mL conical tube containing 9 mL RPMI 1640 medium+10% HI-FBS and then centrifuged 200×g for 4 min before drawing off the media without disturbing the cell pellet to remove the DMSO. The cells were resuspended again in 15 mL of RPMI 1640 fresh complete media+10% HI-FBS and grown up in a T75 flask at 37° C. with 5% CO2 Incubator. Viability was measured to obtain baseline.
Preparing frozen stock vials: Cell density was counted in a stock flask. […]
Day 0: Assay ready plates were prepared by dispensing 50 nL of compound stock or DMSO in the appropriate wells of 384-well white CulturPlates using Echo550. Using the Multiflo, H358 cells at 50 μL/well were plated in RPMI 1640 complete media+10% HI-FBS+1% pen/strep at cell density determined [20,000 cells/mL (1,000 cells/well)] from growth curve. […]
Using the MultiDrop liquid handler, 30 μL of CTG were added per well. […] Plates were incubated for 30 minutes in the dark at RT before measuring luminescence using the Envison2104. […]

A549 cells = assay: High-throughput proliferation (HTP) assay for A549 cells (CellTiter-Glo, 7 days); conditions: read-out: A549 SMARCA2 IC50
Description: Thawing vials: A549 cells (ATCC #CCL-185™) were thawed from a cryovial containing approximately 1.6×10^6 cells frozen in 70% F12K medium, 20% HI-FBS and 10% DMSO. Cells were thawed by submerging the bottom half of the vial in a 37° C. water bath and gently flicked until almost thawed. The cells were transferred into a 15 mL conical tube containing 9 mL of F12K medium+10% HI-FBS and then centrifuged at 200×g for 4 min before drawing off the media without disturbing the cell pellet in order to remove the DMSO. The cells were resuspended again in 15 mL of F12K fresh complete media+10% HI-FBS and grown up in a T75 flask at 37° C. with 5% CO2 Incubator. Viability was measured to obtain baseline. […]
Day 0: Assay ready plates were prepared by dispensing 50 nL of compound or DMSO in the appropriate wells of 384-well white CulturPlates using Echo550. Using the Multiflo, A549 cells were plated at 50 μL/well in F12K complete media+10% HI-FBS+1% pen/strep at cell density determined [1,250 cells/mL (62.5 cells/well)] from growth curve.
Treated cells were incubated at 37° C., 5% CO2, relative humidity >90% for 7 days. […] Plates were incubated for 30 minutes in the dark at RT before measuring luminescence using the Envison2104. […]

[2] = read-out: FL-SMARCA2 IC50, Table 3.1, enzyme 5 nM, ATP 250 uM, chicken mononucleosome 10 nM, 30 min preincubation
[3] = read-out: FL-SMARCA4 IC50, Table 3.2, enzyme 5 nM, ATP 250 uM, chicken mononucleosome 10 nM, 30 min preincubation

SMILES	pIC50 [1, 2]	pIC50 (FL-SMARCA4; [3])	pIC50 ([1]; read-out: FL-SMARCA2 IC50, Table 3c.1, enzyme 5 nM, ATP 250 uM, chicken mononucleosome 10 nM, 30 min preincubation)	pIC50 (H358 cells)	pIC50 (FL-SMARCA4; read-out: FL-SMARCA4 IC>50, Table 3c.2, enzyme 5 nM, ATP 250 uM, chicken mononucleosome 10 nM, 30 min preincubation)	pIC50 (A549 cells)
O=C(Nc1cc(Cl)c(=O)n(CC(F)(F)F)c1)c1cc(Cl)c(Cl)[nH]1	6.42	5.61	–	–	–	–
N#Cc1cc(C(=O)Nc2cc(F)c(=O)n(CC(F)(F)F)c2)oc1Cl	4.68	< 4.30	–	–	–	–
CS(=O)(=O)Cc1cccc(C#Cc2cc(C(=O)Nc3cc(F)c(=O)n(CC(F)F)c3)sc2Cl)c1	–	–	7.22	< 5.00	6.72	5.42
N#Cc1cc(C(=O)Nc2cc(F)c(=O)n(CC(F)(F)F)c2)oc1C#N	5.69	4.97	–	–	–	–
O=C(Nc1cc(Cl)c(=O)n(CCF)c1)c1cc(Cl)c(Cl)[nH]1	6.56	5.90	–	–	–	–

— patent US20220356174A1, “PYRIDIN-2-ONE COMPOUNDS USEFUL AS SMARCA2 ANTAGONISTS” (Epizyme, Inc., priority 2018, published 2022)
